# Measurements reported in PMC5659294 (Pharmacogenetics and genomics, 2017).
# Assay type: in vivo, human
# Conditions: secondary screen
substance,measurement,setting,value
4-hydroxy-tamoxifen [OH-tamoxifen],"Association of season with OH-tamoxifen concentration, β",fall compared to winter,−0.21
same,"Association of weight with OH-tamoxifen concentration, β",greater weight,−0.0038
same,"Association of season with OH-tamoxifen concentration, β",summer compared to winter,−0.13

# Like-named read-outs stand apart in the source and are kept apart here.
